Literature values, collected in patent US9459187B2, “Blood collection device containing lysophospholipase inhibitor” (Becton, Dickinson and Company, priority 2011, dated 2016).

Chains of the proteins cited; added tags and fusions are not shown. Lines headed by an entry give the natural chain unless they say otherwise; changes in a name come on top.
UniProt P22303: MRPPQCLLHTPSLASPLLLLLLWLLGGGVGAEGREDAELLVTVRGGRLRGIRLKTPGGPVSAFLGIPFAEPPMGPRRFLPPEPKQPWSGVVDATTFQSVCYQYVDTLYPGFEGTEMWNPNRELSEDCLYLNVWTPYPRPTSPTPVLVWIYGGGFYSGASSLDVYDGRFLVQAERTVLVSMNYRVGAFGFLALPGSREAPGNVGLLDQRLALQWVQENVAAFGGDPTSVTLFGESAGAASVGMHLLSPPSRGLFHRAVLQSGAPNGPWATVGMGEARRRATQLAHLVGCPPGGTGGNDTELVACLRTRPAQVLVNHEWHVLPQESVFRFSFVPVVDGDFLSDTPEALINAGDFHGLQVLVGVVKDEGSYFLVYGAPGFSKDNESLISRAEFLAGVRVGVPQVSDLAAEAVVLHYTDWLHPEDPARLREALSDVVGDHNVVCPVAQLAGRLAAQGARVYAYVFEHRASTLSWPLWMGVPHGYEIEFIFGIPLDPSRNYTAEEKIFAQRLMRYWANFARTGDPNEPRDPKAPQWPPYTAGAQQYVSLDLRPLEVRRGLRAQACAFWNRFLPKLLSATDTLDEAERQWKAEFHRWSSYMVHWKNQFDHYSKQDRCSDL

Molecular target: acetylcholinesterase (AChE) (Homo sapiens, UniProt P22303)
Conditions: read-out: Ki for AChE; reported literature values

**Q.** For “(9E)-N1-(7-(1,2,3,4-Tetrahydroacridin-9-ylamino)heptyl)-9-ethylidene-4,4,7-trimethylbicyclo[3.3.1]non-6-ene-1,3-diamine”, which Ki is on record?
**A.** The Ki was 0.0165 µM.

**Q.** With “(9E)-N1-(7-(1,2,3,4-Tetrahydroacridin-9-ylamino)heptyl)-9-ethylidene-7-methylbicyclo[3.3.1]non-6-ene-1,3-diamine” as the substance, how does the Ki read?
**A.** The Ki was 0.0157 µM.
